One data set has as its system HEK293T cells. The settings on record: 24 h. The procedure: HEK293T cells were obtained from the American Type Culture Collection (CRL-3216). The cells were cultured in high-glucose Dulbecco’s modified Eagle’s medium supplemented with 1% penicillin and streptomycin (antibiotics) and 10% fetal bovine serum and grown at 37 °C in a humidified atmosphere containing 5% CO2.
One day before the experiment, an aliquot of 100 μl of the cells at 50,000 cells per ml was seeded into each well of the cell-treated 96-well plates used in the experiment (that is, 5,000 cells per well). […] After the incubation period, we performed the 3-(4,5-dimethylthiazol-2-yl)-2,5-diphenyltetrazolium bromide tetrazolium reduction assay (MTT assay)[53]. The MTT reagent was dissolved at 0.5 mg ml^−1 in medium without phenol red and was used to replace cell culture supernatants containing the peptides (100 μl per well), and the samples were incubated for 4 h at 37 °C in a humidified atmosphere containing 5% CO2 yielding the insoluble formazan salt. The resulting salts were then resuspended in hydrochloric acid (0.04 mol l^−1) in anhydrous isopropanol and quantified by spectrophotometric measurements of absorbance at 570 nm. All assays were done as three biological replicates.
Unless otherwise stated, all assays were performed in three independent biological replicates as indicated in each figure legend and Methods sections. The cytotoxic activities values were estimated using non-linear regression based on the range of concentrations screened and were shown as the values that cause lysis of 50% of the cells in the experiment. Two technical replicates were performed in the cytotoxicity assays within each of the three biological replicates.

Data set [1] concerns 11 clinically relevant bacterial pathogens. It is filed as cell-based. The following applies: Supplementary Dataset 2; against the 11 pathogens tested. The text has this:
(§1) The following Gram-negative bacteria were used in our study: A. baumannii ATCC 19606, E. coli ATCC 11775, E. coli AIC221 (E. coli MG1655 phnE_2::FRT), E. coli AIC222 (E. coli MG1655 pmrA53 phnE_2::FRT (colistin resistant)), K. pneumoniae ATCC 13883, P. aeruginosa PAO1 and P. aeruginosa PA14. The following Gram-positive bacteria were also used in our study: S. aureus ATCC 12600, S. aureus ATCC BAA-1556 (methicillin-resistant strain), E. faecalis ATCC 700802 (vancomycin-resistant strain) and E. faecium ATCC 700221 (vancomycin-resistant strain). Bacteria were grown from frozen stocks and plated on Luria–Bertani (LB) or Pseudomonas isolation agar plates (P. aeruginosa strains) and incubated overnight at 37 °C. After the incubation period, a single colony was transferred to 5 ml of LB medium, and cultures were incubated overnight (16 h) at 37 °C. The following day, an inoculum was prepared by diluting the overnight cultures 1:100 in 5 ml of the respective media and incubating them at 37 °C until bacteria reached logarithmic phase (OD600 = 0.3–0.5).
(§2) The in vitro antimicrobial activity of the peptides was assessed by using the broth microdilution assay. […] Aqueous solutions of the peptides were added to the plate at concentrations ranging from 1 to 64 μmol l^−1. […] The optical density of the plates was measured at 600 nm using a spectrophotometer. All assays were done as three biological replicates.

The test system of data set [2] is A. baumannii ATCC 19606. It is filed as cell-based, Acinetobacter baumannii. The following applies: ATCC 19606, 20 h.
Source text: as §1, §2

Data set [3] relates to A. baumannii ATCC 19606. Put plainly: Cytoplasmic membrane depolarization assay (DiSC3-5). It is filed as cell-based, Acinetobacter baumannii. The settings on record: DiSC3-5 fluorescence, peptide at its MIC, polymyxin B as positive control; three replicates. The method, then:
The depolarization of the bacterial cytoplasmic membrane was determined by fluorescence measurements of the membrane potential-sensitive dye, DiSC3-5 (ref. [16]). Briefly, A. baumannii ATCC 19606 and P. aeruginosa PAO1 were grown at 37 °C until mid-log phase (OD600 = 0.5). The cells were then centrifuged using the same conditions described for the NPN uptake assays, washed twice with washing buffer containing 20 mmol l^−1 glucose and 5 mmol l^−1 HEPES (pH 7.2). The cells were diluted 1:10 (OD600 = 0.05) in a buffer containing 0.1 mol l^−1 KCl, 20 mmol l^−1 glucose and 5 mmol l^−1 HEPES (pH 7.2). About 100 μl of bacterial solution was then incubated for 15 min with 20 nmol l^−1 of DiSC3-5 until the fluorescence reached a plateau, that is, the dye was fully internalized into the bacterial membrane. Transmembrane potential changes were monitored by observing the difference in the fluorescence emission intensity of DiSC3-5 (λex = 622 nm, λem = 670 nm), after the addition of 100 μl of peptide aqueous solution at its MIC. All assays were performed in three biological replicates. The relative fluorescence values were calculated for the course of the experiment using non-linear fitting, and the untreated control (buffer + bacteria + fluorescent dye) served as baseline. […]

Another data set relates to K. pneumoniae ATCC 13883. It is filed as cell-based, Klebsiella pneumoniae. The settings on record: ATCC 13883, 20 h.
Source text: as §1
The in vitro antimicrobial activity of the peptides was assessed by using the broth microdilution assay. […] Aqueous solutions of the peptides were added to the plate at concentrations ranging from 1 to 64 μmol l^−1. […] The optical density of the plates was measured at 600 nm using a spectrophotometer. […]

In brackets after ≈: the same amount, converted by molar mass. Where only a bound is given, the exact number is not on record here.

`CC(C)C[C@H](NC(=O)CNC(=O)[C@H](CCCNC(=N)N)NC(=O)[C@H](CCCCN)NC(=O)[C@@H](N)CCCNC(=N)N)C(=O)N[C@@H](CCCCN)C(=O)N[C@@H](CC(C)C)C(=O)N[C@@H](C)C(=O)N[C@H](C(=O)N[C@@H](C)C(=O)N[C@@H](CC(C)C)C(=O)N[C@@H](CO)C(=O)N[C@@H](CC(C)C)C(=O)N[C@@H](CC(N)=O)C(=O)N[C@@H](CC(N)=O)C(=O)N[C@@H](CCCCN)C(=O)N[C@@H](Cc1ccccc1)C(=O)N[C@H](C(=O)O)C(C)C)[C@@H](C)O` [Mylodonin-4] yielded a CC50 with HEK293T cells of over 128 µM. For the same compound, the “Active or Inactive” value in data set [1] is given as “Active”. Also, the “Minimal inhibitory concentration, A. baumannii ATCC19606” value with A. baumannii ATCC 19606 [2] was 64 µM (≈ 130 µg/mL). Also, the “Cytoplasmic membrane depolarization, in words” value with A. baumannii ATCC 19606 [3] is reported as “most potent depolarization effects”.

For `CC[C@H](C)[C@H](N)C(=O)N[C@@H](Cc1ccccc1)C(=O)N[C@@H](CO)C(=O)N[C@@H](CC(C)C)C(=O)N[C@@H](Cc1c[nH]cn1)C(=O)N[C@@H](CC(C)C)C(=O)N[C@@H](C)C(=O)NCC(=O)N[C@H](C(=O)N[C@@H](CO)C(=O)N[C@@H](CO)C(=O)N[C@H](C(=O)N[C@@H](CC(C)C)C(=O)O)[C@@H](C)CC)[C@@H](C)CC` [Ursusin-1], in the data set with HEK293T cells, the CC50 is over 128 µM and the “TI (therapeutic index)” value is on record as over 2. Further, the “Active or Inactive” value in data set [1] is given as “Active”. In addition, in the data set with K. pneumoniae ATCC 13883, the “Minimal inhibitory concentration, K. pneumoniae ATCC133883” value was 64 µM (≈ 87.7 µg/mL).

Consider `CC[C@H](C)[C@H](NC(=O)[C@@H](NC(=O)[C@H](CCCCN)NC(=O)[C@H](CCCCN)NC(=O)[C@H](CCCCN)NC(=O)[C@H](CCCCN)NC(=O)[C@H](CC(C)C)NC(=O)CNC(=O)[C@H](CCC(N)=O)NC(=O)[C@@H](NC(=O)[C@H](Cc1ccc(O)cc1)NC(=O)[C@H](CCCNC(=N)N)NC(=O)[C@@H](NC(=O)[C@H](CC(C)C)NC(=O)[C@H](CC(N)=O)NC(=O)[C@H](CCCNC(=N)N)NC(=O)[C@H](C)NC(=O)[C@H](CCSC)NC(=O)[C@@H](N)CCCNC(=N)N)C(C)C)C(C)C)C(C)C)C(=O)O` [Hydrodamin-2], for which the CC50 with HEK293T cells is over 128 µM. The “Active or Inactive” value in data set [1] was “Active”. Moreover, the “Minimal inhibitory concentration, A. baumannii ATCC19606” value with A. baumannii ATCC 19606 [2] amounted to 16 µM (≈ 36.8 µg/mL). In addition, the “Cytoplasmic membrane depolarization, in words” value in the data set on A. baumannii ATCC 19606 [3] is on record as “most potent depolarization effects”.

For the compound `CC[C@H](C)[C@H](NC(=O)CNC(=O)[C@@H](NC(=O)[C@@H]1CCCN1C(=O)[C@@H](NC(=O)[C@@H](NC(=O)[C@@H](NC(=O)[C@@H](NC(=O)[C@H](CCCCN)NC(=O)[C@H](CCCCN)NC(=O)[C@H](CCCCN)NC(=O)[C@H](CCCCN)NC(=O)[C@H](CC(C)C)NC(=O)CNC(=O)[C@H](CCC(N)=O)NC(=O)[C@@H](NC(=O)[C@H](Cc1ccc(O)cc1)NC(=O)[C@H](CCCNC(=N)N)NC(=O)[C@@H](NC(=O)[C@H](CC(C)C)NC(=O)[C@H](CC(N)=O)NC(=O)[C@@H](N)CCCNC(=N)N)C(C)C)C(C)C)C(C)C)[C@@H](C)CC)C(C)C)[C@@H](C)CC)C(C)C)C(=O)NCC(=O)N1CCC[C@H]1C(=O)N[C@@H](Cc1c[nH]cn1)C(=O)N[C@@H](C)C(=O)N[C@@H](CC(N)=O)C(=O)N[C@H](C(=O)N[C@@H](CCCCN)C(=O)O)[C@@H](C)CC` [Hydrodamin-3], the CC50 in the data set on HEK293T cells is over 128 µM. Moreover, the “Active or Inactive” value in data set [1] was “Active”. Also, in the data set on A. baumannii ATCC 19606 [2], the “Minimal inhibitory concentration, A. baumannii ATCC19606” value stood at 16 µM (≈ 51.8 µg/mL).

A word on the CC50: it is the concentration giving 50% cytotoxicity.

These data come from PMC11310081, “Deep-learning-enabled antibiotic discovery through molecular de-extinction” (Nature Biomedical Engineering, 2024).
